Protein sequences, listed by entry. Tags and fused reporters are not part of them. Lines headed by an entry give the natural chain unless they say otherwise; changes in a name come on top.
UniProt P01889: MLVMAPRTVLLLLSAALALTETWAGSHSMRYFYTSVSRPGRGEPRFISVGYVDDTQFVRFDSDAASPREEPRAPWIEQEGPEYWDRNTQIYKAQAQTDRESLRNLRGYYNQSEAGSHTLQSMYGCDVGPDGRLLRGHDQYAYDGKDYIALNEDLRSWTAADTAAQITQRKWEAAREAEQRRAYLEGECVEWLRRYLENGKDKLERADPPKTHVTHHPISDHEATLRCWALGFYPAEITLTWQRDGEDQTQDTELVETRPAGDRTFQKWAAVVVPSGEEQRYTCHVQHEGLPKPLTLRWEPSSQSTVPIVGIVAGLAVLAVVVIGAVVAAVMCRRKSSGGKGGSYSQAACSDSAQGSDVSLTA

In patent publication EP1903056A2, “HLA-A1, -A2 -A3, -A24, -B7, and -B44 tumor associated antigen peptides and compositions” (priority 2002, dated 2004):

Assays:
B*4402 = B*4402 (Homo sapiens, UniProt P01889, A223V/A65T/A93T/A95T/D201E/D98Y/E176V/E187L/E204Q/E69K/G107R/H137Y/K202T/L105A/L119I/N104T/N87E/Q56L/Q94N/R106L/R155S/R180D/S101N/S121R/S35A/S48T/T118I/V36M/W191S/Y140D/Y91S); assay: B44 supertype peptide binding, B*4402
B*4501 = B*4501 (Homo sapiens, UniProt P01889, A329T/A65T/A93T/A95T/C349S/D138N/D201E/D98Y/E176V/E187L/E204Q/E69K/H137Y/K202T/L119W/N87E/Q56L/Q94N/R155S/R180D/S121R/S35A/S48T/V127L/V306I/V36M/W191S/Y140L/Y33H/Y91S); assay: B44 supertype peptide binding, B*4501; details: read-out: B* 4501
B*4001(B60) = B*4001(B60) (Homo sapiens, UniProt P01889, A65T/A93T/A95T/D138N/D98Y/E176V/E69K/N87E/Q56L/Q94N/R180L/S121R/S35A/S48T/T167S/V36M/W171L/Y33H/Y91S); assay: B44 supertype peptide binding, B*4001; details: read-out: B* 4001
[1] = CEA-derived B44 peptides, binding affinity, unit inferred, read-out: B* 4402
[2] = CEA-derived B44 peptides, binding affinity, unit inferred
[3] = HER 2/neu-derived B44 peptides, Table 27, read-out: B* 4402
[4] = HER 2/neu-derived B44 peptides, Table 27
[5] = Table 29: MAGE2-derived B44 peptides
[6] = Table 29: MAGE2-derived B44 peptides, read-out: B* 4402

SMILES: CC[C@H](C)[C@H](NC(=O)[C@H](CO)NC(=O)[C@@H]1CCCN1C(=O)[C@H](CCCCN)NC(=O)[C@@H]1CCCN1C(=O)[C@H](CC(C)C)NC(=O)[C@H](CCC(=O)O)NC(=O)[C@H](C)N)C(=O)O [compound 403]
- IC50 (B*4402; [1]): 959 nM

SMILES: CC[C@H](C)[C@H](NC(=O)[C@H](CCC(=O)O)NC(=O)[C@@H](N)CCCCN)C(=O)N[C@@H](CC(C)C)C(=O)N[C@@H](CC(=O)O)C(=O)N[C@@H](CCC(=O)O)C(=O)N[C@@H](C)C(=O)N[C@@H](Cc1ccc(O)cc1)C(=O)N[C@H](C(=O)N[C@@H](CCSC)C(=O)O)C(C)C [compound 436]
- IC50 (B*4402; [3]): 35 nM
- IC50 (B*4501; [4]): 234 nM

SMILES: CC(C)C[C@H](NC(=O)[C@@H]1CCCN1C(=O)[C@H](CCC(=O)O)NC(=O)[C@@H](NC(=O)[C@H](CC(C)C)NC(=O)[C@H](CCC(=O)O)NC(=O)[C@@H](NC(=O)[C@H](CCC(=O)O)NC(=O)[C@@H](N)CCC(N)=O)[C@@H](C)O)C(C)C)C(=O)O [compound 462]
- IC50 (B*4501; [4]): 1230 nM

SMILES: CC[C@H](C)[C@H](NC(=O)[C@H](CCC(=O)O)NC(=O)[C@@H](N)[C@@H](C)O)C(=O)N[C@@H](CC(C)C)C(=O)N[C@@H](CCCCN)C(=O)NCC(=O)NCC(=O)N[C@H](C(=O)N[C@@H](CC(C)C)C(=O)O)C(C)C [compound 476]
- IC50 (B*4501; [4]): 2480 nM

SMILES: CC(C)C[C@H](NC(=O)[C@H](CO)NC(=O)[C@H](CCC(N)=O)NC(=O)[C@H](CS)NC(=O)[C@H](CC(=O)O)NC(=O)[C@H](CCC(=O)O)NC(=O)[C@H](CO)NC(=O)[C@H](CO)NC(=O)[C@H](CCC(=O)O)NC(=O)CN)C(=O)O [compound 478]
- IC50 (B*4501; [4]): 2490 nM

SMILES: CC(C)[C@H](NC(=O)[C@H](C)NC(=O)[C@H](CCCNC(=N)N)NC(=O)[C@@H](NC(=O)[C@H](CCC(=O)O)NC(=O)[C@@H](N)CCCNC(=N)N)C(C)C)C(=O)N[C@H](C(=O)N[C@@H](CO)C(=O)N[C@@H](C)C(=O)O)[C@@H](C)O [compound 481]
- IC50 (B*4402; [3]): 3160 nM

SMILES: CC(C)C[C@H](NC(=O)[C@@H]1CCCN1C(=O)CNC(=O)[C@H](CCC(=O)O)NC(=O)[C@@H](N)CCCNC(=N)N)C(=O)N1CCC[C@H]1C(=O)N[C@@H](C)C(=O)N[C@@H](C)C(=O)N[C@@H](CCCNC(=N)N)C(=O)N1CCC[C@H]1C(=O)N[C@@H](C)C(=O)O [compound 500]
- IC50 (B*4501; [4]): 347 nM

SMILES: CC(C)C[C@H](NC(=O)[C@H](CO)NC(=O)[C@H](CCC(N)=O)NC(=O)[C@H](CS)NC(=O)[C@H](CC(=O)O)NC(=O)[C@H](CCC(=O)O)NC(=O)[C@H](CO)NC(=O)[C@H](CO)NC(=O)[C@H](CCC(=O)O)NC(=O)CN)C(=O)N[C@H](C(=O)O)[C@@H](C)O [compound 502]
- IC50 (B*4402; [3]): 14400 nM

SMILES: CC(C)C[C@H](NC(=O)[C@H](C)NC(=O)[C@@H]1CCCN1C(=O)[C@H](CS)NC(=O)[C@H](Cc1c[nH]cn1)NC(=O)[C@H](CC(C)C)NC(=O)[C@H](CCC(=O)O)NC(=O)[C@@H](N)CS)C(=O)N[C@H](C(=O)N[C@H](C(=O)O)[C@@H](C)O)C(C)C [compound 505]
- IC50 (B*4402): 933 nM
- IC50 (B*4501; [4]): 1270 nM

SMILES: CC[C@H](C)[C@H](NC(=O)[C@@H]1CCCN1C(=O)[C@@H]1CCCN1C(=O)[C@H](CCC(N)=O)NC(=O)[C@@H]1CCCN1C(=O)[C@H](CC(C)C)NC(=O)[C@H](CCCNC(=N)N)NC(=O)[C@H](CCC(=O)O)NC(=O)CN)C(=O)N[C@@H](CS)C(=O)N[C@H](C(=O)O)[C@@H](C)O [compound 521]
- IC50 (B*4402; [3]): 9090 nM

SMILES: CC(C)C[C@H](NC(=O)[C@H](CCC(=O)O)NC(=O)[C@H](CCCNC(=N)N)NC(=O)[C@H](Cc1ccccc1)NC(=O)[C@H](CCCNC(=N)N)NC(=O)[C@@H]1CCCN1C(=O)[C@H](CCCNC(=N)N)NC(=O)[C@H](CS)NC(=O)[C@H](CCC(=O)O)NC(=O)[C@@H](N)CO)C(=O)N[C@H](C(=O)O)C(C)C [compound 522]
- IC50 (B*4001(B60); [4]): 3670 nM
- IC50 (B*4402; [3]): 927 nM

SMILES: CC[C@H](C)[C@H](NC(=O)[C@H](CCC(=O)O)NC(=O)[C@H](CCC(=O)O)NC(=O)[C@@H](N)CC(C)C)C(=O)N[C@H](C(=O)NCC(=O)N[C@@H](Cc1ccc(O)cc1)C(=O)N[C@@H](CC(C)C)C(=O)O)[C@@H](C)O [compound 527]
- IC50 (B*4402; [3]): 8040 nM

SMILES: CC(C)C[C@H](NC(=O)[C@@H]1CCCN1C(=O)[C@H](CCC(=O)O)NC(=O)[C@@H](NC(=O)[C@H](CC(C)C)NC(=O)[C@H](CCC(=O)O)NC(=O)[C@@H](N)[C@@H](C)O)C(C)C)C(=O)O [compound 529]
- IC50 (B*4001(B60); [4]): 14200 nM
- IC50 (B*4402; [3]): 8850 nM

Continued, values first:

- IC50 (B*4402; [1]): 963 nM
- IC50 (B*4501; [2]): > 10000 nM
SMILES: CC(C)[C@H](N)C(=O)N[C@@H](CCC(=O)O)C(=O)N[C@@H](CC(=O)O)C(=O)N[C@@H](CCCCN)C(=O)N[C@@H](CC(=O)O)C(=O)N[C@@H](C)C(=O)N[C@H](C(=O)N[C@@H](C)C(=O)N[C@@H](Cc1ccccc1)C(=O)O)C(C)C [compound 398]

- IC50 (B*4501; [2]): > 10000 nM
SMILES: CC(C)C[C@H](NC(=O)[C@H](C)NC(=O)[C@@H](NC(=O)[C@H](C)NC(=O)[C@H](CC(=O)O)NC(=O)[C@H](CCC(=O)O)NC(=O)[C@H](CC(=O)O)NC(=O)[C@H](CCC(=O)O)NC(=O)[C@@H](N)C(C)C)C(C)C)C(=O)O [compound 400]

- IC50 (B*4402; [1]): > 10000 nM
SMILES: C[C@H](NC(=O)[C@H](CCC(=O)O)NC(=O)[C@@H]1CCCN1)C(=O)N[C@@H](CCC(N)=O)C(=O)N[C@@H](CC(N)=O)C(=O)N[C@H](C(=O)N[C@H](C(=O)N[C@@H](Cc1ccc(O)cc1)C(=O)O)[C@@H](C)O)[C@@H](C)O [compound 404]

- IC50 (B*4001(B60); [4]): 2.2 nM
- IC50 (B*4402; [3]): 45 nM
SMILES: CC(C)C[C@H](NC(=O)CNC(=O)[C@H](CC(C)C)NC(=O)[C@H](Cc1ccc(O)cc1)NC(=O)[C@H](CCC(=O)O)NC(=O)[C@@H]1CCCN1C(=O)[C@H](CC(N)=O)NC(=O)[C@H](CCC(=O)O)NC(=O)[C@H](C)N)C(=O)O [compound 439]

- IC50 (B*4001(B60); [4]): 423 nM
SMILES: CC[C@H](C)[C@H](NC(=O)[C@H](CCCCN)NC(=O)[C@H](CCCCN)NC(=O)[C@H](CS)NC(=O)CNC(=O)[C@H](C)NC(=O)[C@H](Cc1ccccc1)NC(=O)[C@H](CCC(=O)O)NC(=O)[C@@H](N)CCC(N)=O)C(=O)N[C@@H](Cc1ccccc1)C(=O)NCC(=O)O [compound 441]

- IC50 (B*4402; [3]): 473 nM
SMILES: CC(C)C[C@H](NC(=O)[C@H](C)NC(=O)[C@H](CC(C)C)NC(=O)CNC(=O)[C@H](CO)NC(=O)CNC(=O)[C@H](CC(C)C)NC(=O)[C@H](CCC(=O)O)NC(=O)[C@@H](N)CCCNC(=N)N)C(=O)O [compound 456]

- IC50 (B*4501; [4]): 324 nM
SMILES: CC[C@H](C)[C@H](NC(=O)[C@H](CC(C)C)NC(=O)[C@H](C)NC(=O)[C@H](CC(C)C)NC(=O)CNC(=O)[C@H](CO)NC(=O)CNC(=O)[C@H](CC(C)C)NC(=O)[C@H](CCC(=O)O)NC(=O)[C@@H](N)CCCNC(=N)N)C(=O)O [compound 457]

- IC50 (B*4501; [4]): 865 nM
SMILES: CC[C@H](C)[C@H](NC(=O)[C@H](CCC(=O)O)NC(=O)[C@@H](NC(=O)[C@H](CC(C)C)NC(=O)[C@H](CO)NC(=O)[C@H](CCCNC(=N)N)NC(=O)[C@H](CC(C)C)NC(=O)[C@H](CCC(N)=O)NC(=O)[C@H](CC(C)C)NC(=O)[C@H](CCC(=O)O)NC(=O)[C@@H](N)CCCNC(=N)N)[C@@H](C)O)C(=O)N[C@@H](CC(C)C)C(=O)O [compound 501]

- IC50 (B*4001(B60); [5]): 235 nM
- IC50 (B*4402; [6]): 348 nM
SMILES: CC(C)C[C@H](NC(=O)[C@H](Cc1ccc(O)cc1)NC(=O)[C@H](CCC(=O)O)NC(=O)[C@@H](N)CO)C(=O)N[C@@H](CCC(N)=O)C(=O)N[C@@H](CC(C)C)C(=O)N[C@H](C(=O)N[C@@H](Cc1ccccc1)C(=O)NCC(=O)O)C(C)C [compound 649]

- IC50 (B*4402; [6]): 291 nM
SMILES: CSCC[C@H](NC(=O)[C@H](CCCNC(=N)N)NC(=O)[C@@H]1CCCN1C(=O)CNC(=O)[C@H](CCC(=O)O)NC(=O)[C@@H](N)CCC(=O)O)C(=O)N[C@@H](Cc1ccccc1)C(=O)N1CCC[C@H]1C(=O)N[C@@H](CC(=O)O)C(=O)N[C@@H](CC(C)C)C(=O)O [compound 657]

- IC50 (B*4001(B60); [5]): 301 nM
SMILES: CC(C)C[C@H](NC(=O)[C@@H](NC(=O)[C@H](CO)NC(=O)[C@H](CO)NC(=O)[C@H](CO)NC(=O)[C@H](CO)NC(=O)[C@H](C)NC(=O)[C@@H](NC(=O)[C@H](CCC(N)=O)NC(=O)[C@H](CCC(N)=O)NC(=O)[C@H](CCC(=O)O)NC(=O)[C@@H](N)CCC(=O)O)[C@@H](C)O)[C@@H](C)O)C(=O)O [compound 686]

- IC50 (B*4501; [5]): 6780 nM
SMILES: CC[C@H](C)[C@H](NC(=O)[C@@H]1CCCN1C(=O)[C@@H](NC(=O)[C@@H](NC(=O)[C@H](CCC(=O)O)NC(=O)[C@@H](N)C(C)C)C(C)C)C(C)C)C(=O)N[C@@H](CO)C(=O)N[C@@H](Cc1c[nH]cn1)C(=O)N[C@@H](CC(C)C)C(=O)N[C@@H](Cc1ccc(O)cc1)C(=O)O [compound 692]

- IC50 (B*4402; [6]): 4430 nM
SMILES: CC(C)[C@H](NC(=O)[C@H](CO)NC(=O)[C@H](CC(=O)O)NC(=O)[C@H](CCC(=O)O)NC(=O)[C@H](CCCNC(=N)N)NC(=O)CNC(=O)[C@H](CCC(=O)O)NC(=O)[C@@H](N)Cc1ccccc1)C(=O)N[C@@H](Cc1ccccc1)C(=O)O [compound 693]

- IC50 (B*4001(B60); [5]): > 10000 nM
- IC50 (B*4402; [6]): > 10000 nM
SMILES: CC(C)C[C@H](NC(=O)[C@@H](NC(=O)[C@@H](NC(=O)[C@H](CCC(=O)O)NC(=O)[C@@H](N)C(C)C)C(C)C)[C@@H](C)O)C(=O)NCC(=O)N[C@@H](CCC(=O)O)C(=O)N[C@H](C(=O)N1CCC[C@H]1C(=O)N[C@@H](C)C(=O)N[C@@H](C)C(=O)O)C(C)C [compound 696]

Like-named read-outs stand apart in the source and are kept apart here. Each block holds one molecule with its values, some of them ahead of it.
